# Experimental data published in publication PMC10033409, “Autoregulation of GPCR signalling through the third intracellular loop” (Nature, 2023).
# The chains behind the UniProt entries cited, without tags or fusion partners. A line that says so, or that is headed by a name, gives the form on record, which may keep a tag or linker.
# UniProt P37288, with tags, fused parts or gaps DEL253-275: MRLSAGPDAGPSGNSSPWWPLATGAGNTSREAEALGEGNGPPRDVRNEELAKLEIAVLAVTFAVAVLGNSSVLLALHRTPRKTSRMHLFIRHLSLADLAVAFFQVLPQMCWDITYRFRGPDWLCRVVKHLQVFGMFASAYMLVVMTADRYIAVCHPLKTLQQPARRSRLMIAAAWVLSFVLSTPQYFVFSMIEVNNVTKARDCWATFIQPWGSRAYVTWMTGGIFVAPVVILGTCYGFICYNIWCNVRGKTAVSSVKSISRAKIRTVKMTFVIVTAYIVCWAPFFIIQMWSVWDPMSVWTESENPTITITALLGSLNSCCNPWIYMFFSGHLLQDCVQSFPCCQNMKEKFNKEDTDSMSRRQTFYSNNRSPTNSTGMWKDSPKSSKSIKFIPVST
# Target: T1, V1AR (Homo sapiens, UniProt P37288, DEL253-275)
# T1 construct: expressed in transfected cells; host or cells: HEK 293T
# Experiment: cAMP accumulation, V1AR
# Format: cell-based
# Settings: V1R ∆ICL3; saturating agonist concentration; 500 µM IBMX
# Source text: […]. The cells were washed once by repeating this procedure.
substance,measurement,value
CYFQNCPRG-NH2 [Arginine vasopressin],"cAMP (AU), Average",0.0331 AU
